Among the data in ChEMBL document CHEMBL4419168, “Substituted n-([1,1''-biphenyl]-3-yl)-[1,1''-biphenyl]-3-carboxamide analogs as inhibitors for beta-catenin/b-cell lymphoma 9 interactions” (2018) are Ratio Ki and inhibition values, retold here.

Protein sequences, listed by entry. Tags and fused reporters are not part of them. Lines headed by an entry give the natural chain unless they say otherwise; changes in a name come on top.
UniProt P35222: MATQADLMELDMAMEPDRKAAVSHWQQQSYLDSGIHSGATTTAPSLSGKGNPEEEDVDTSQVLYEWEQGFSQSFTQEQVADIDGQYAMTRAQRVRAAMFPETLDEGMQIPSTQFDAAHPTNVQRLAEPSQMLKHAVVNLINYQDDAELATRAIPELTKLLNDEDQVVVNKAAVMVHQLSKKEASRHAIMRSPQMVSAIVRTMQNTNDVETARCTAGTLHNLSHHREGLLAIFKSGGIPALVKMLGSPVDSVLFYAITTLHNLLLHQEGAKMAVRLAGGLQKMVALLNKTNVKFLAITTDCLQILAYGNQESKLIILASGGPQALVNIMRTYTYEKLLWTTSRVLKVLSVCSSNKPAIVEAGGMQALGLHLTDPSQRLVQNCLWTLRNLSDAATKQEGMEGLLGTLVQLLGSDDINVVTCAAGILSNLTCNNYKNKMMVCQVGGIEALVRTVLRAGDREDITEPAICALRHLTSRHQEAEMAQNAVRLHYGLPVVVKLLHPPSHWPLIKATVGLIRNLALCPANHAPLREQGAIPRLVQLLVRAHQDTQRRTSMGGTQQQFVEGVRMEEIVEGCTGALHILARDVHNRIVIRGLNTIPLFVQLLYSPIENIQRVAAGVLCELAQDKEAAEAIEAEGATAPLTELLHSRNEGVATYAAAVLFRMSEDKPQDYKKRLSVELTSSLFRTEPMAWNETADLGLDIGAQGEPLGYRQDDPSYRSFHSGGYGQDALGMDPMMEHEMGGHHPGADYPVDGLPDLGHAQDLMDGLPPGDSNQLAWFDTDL
UniProt O00512: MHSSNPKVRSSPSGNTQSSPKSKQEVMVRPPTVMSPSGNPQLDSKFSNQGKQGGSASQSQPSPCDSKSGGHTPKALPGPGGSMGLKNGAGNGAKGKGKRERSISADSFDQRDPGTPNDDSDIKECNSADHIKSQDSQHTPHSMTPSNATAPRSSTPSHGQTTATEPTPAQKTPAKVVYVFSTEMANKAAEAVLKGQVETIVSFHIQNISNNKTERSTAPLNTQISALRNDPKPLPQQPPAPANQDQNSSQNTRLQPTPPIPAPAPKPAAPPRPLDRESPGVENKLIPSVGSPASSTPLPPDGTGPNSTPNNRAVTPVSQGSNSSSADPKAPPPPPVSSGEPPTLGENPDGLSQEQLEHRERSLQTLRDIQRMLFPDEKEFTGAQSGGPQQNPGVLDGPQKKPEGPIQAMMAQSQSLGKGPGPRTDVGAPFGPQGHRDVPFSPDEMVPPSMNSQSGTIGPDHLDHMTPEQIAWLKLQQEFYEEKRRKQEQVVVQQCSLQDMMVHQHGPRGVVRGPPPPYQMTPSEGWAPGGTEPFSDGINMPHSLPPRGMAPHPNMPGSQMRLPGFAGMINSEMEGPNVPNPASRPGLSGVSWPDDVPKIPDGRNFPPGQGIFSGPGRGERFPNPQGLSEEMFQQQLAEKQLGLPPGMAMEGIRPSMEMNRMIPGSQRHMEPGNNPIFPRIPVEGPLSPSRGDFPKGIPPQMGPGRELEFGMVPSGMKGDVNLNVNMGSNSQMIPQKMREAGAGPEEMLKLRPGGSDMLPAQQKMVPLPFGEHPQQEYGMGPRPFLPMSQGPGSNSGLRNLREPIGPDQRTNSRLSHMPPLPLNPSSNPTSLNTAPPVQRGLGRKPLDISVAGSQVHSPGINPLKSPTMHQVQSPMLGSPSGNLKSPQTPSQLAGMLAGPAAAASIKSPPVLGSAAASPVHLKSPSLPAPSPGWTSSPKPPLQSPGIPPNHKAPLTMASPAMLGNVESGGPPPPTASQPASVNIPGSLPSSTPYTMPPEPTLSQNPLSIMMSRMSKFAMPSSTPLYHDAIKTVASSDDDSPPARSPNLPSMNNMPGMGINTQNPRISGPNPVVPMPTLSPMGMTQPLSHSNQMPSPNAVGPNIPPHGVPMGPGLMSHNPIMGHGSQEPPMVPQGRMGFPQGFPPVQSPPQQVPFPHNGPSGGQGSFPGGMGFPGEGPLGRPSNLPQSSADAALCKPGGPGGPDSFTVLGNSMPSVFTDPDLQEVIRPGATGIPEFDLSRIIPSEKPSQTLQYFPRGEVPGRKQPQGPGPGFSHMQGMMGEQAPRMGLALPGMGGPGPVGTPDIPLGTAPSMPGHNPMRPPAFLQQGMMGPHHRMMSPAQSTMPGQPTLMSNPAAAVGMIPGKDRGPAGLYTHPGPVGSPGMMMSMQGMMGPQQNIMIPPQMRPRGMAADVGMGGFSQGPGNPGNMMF

The source made the active and inactive calls. No cut-off for these calls is given here.

For test [1], the species on record is Homo sapiens. In words: Selectivity index, ratio of Ki for inhibition of C-terminal 6x-histidine tagged beta-catenin (138 to 686 residues) (unknown origin) expressed in Escherichia coli BL21 DE3/N-terminally biotinylated human E-cadherin (824 to 877 residues) protein-protein interactions by Alpha-screen assay to Ki for …. In general terms: In Alpha technology, singlet oxygen from a donor bead excites a nearby acceptor bead.

Test [2] concerns the target T1, beta-catenin-B-cell lymphoma 9 protein complex (Homo sapiens) (UniProt P35222+O00512). The following applies: SW480, 1 to 4 uM.
The target of test [3] is T1, beta-catenin-B-cell lymphoma 9 protein complex (Homo sapiens). The following applies: SW480, 1 to 4 uM. This is another data set of the same source.
Test [4] has the same target. The following applies: SW480, 1 to 4 uM. This is another data set of the same source.
Test [5] shares this target. The note with it: SW480, 1 to 4 uM. This is another data set of the same source.
The target is the same in test [6]. The following applies: MDA-MB-231, 2 to 4 uM.

What is called inhibition is the share of the control response that was lost under treatment.

Consider `O=C(Nc1ccc(O[C@H]2CCNC2)c(-c2ccc(F)cc2)c1)c1ccc(O[C@@H]2CCNC2)c(-c2ccc(F)c(F)c2)c1`, for which, in test [1], the Ratio Ki stood at 19.

On to `O=C(Nc1ccc(O[C@@H]2CCNC2)c(-c2ccc(F)cc2)c1)c1ccc(O[C@@H]2CCNC2)c(-c2ccc(F)c(F)c2)c1`, for which the Ratio Ki in test [1] amounted to 52.

Consider `O=C(Nc1ccc(O[C@H]2CCNC2)c(-c2ccc(F)cc2)c1)c1ccc(O[C@H]2CCNC2)c(-c2ccc(F)c(F)c2)c1`, for which the inhibition entry in test [2], in test [3] and in test [4] was “Active” throughout. Moreover, in test [5], the inhibition result was “inactive”. The compound further returned an inhibition in test [6] of more than 50%.

Turning to `O=C(Nc1ccc(O[C@@H]2CCNC2)c(-c2ccc(F)cc2)c1)c1ccc(O[C@H]2CCNC2)c(-c2ccc(F)c(F)c2)c1`, in test [1], the Ratio Ki worked out at 40.
